# Apparent affinities of Ab-14 variants for a coronavirus HR2 peptide

Reference: Li et al. 2023, doi:10.1038/s41467-023-39022-2. File: FLAb, binding data.

The target is the same throughout: PDVDLGDISGINAS, from the HR2 region of SARS-CoV-2 spike.

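Phage display of a naive human antibody library on the peptide gave the parent. Designed CDR sequences, proposed from the first random library and measured here. Their group label is 14L_En_Gen (En: ensemble of fine-tuned language models; Gen: genetic algorithm). AlphaSeq pools MATa yeast showing the antibodies with MATalpha yeast showing the peptide. Binding brings cells together so that they mate, and sequencing counts the barcode pairs among the diploids. The ratio of observed to expected reads was calibrated, replicate by replicate, on BCL2-family standards whose Kd was known from biolayer interferometry. The assay was run in six technical replicates.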

Each scFv is VH, the linker GGGGSGGGGSGGGGS, VL, as in the parent Ab-14, and differs from it in the CDRs of the light chain only.
VH: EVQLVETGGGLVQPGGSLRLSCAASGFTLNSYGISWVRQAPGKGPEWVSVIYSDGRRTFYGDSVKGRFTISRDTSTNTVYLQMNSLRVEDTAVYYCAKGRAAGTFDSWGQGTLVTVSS
VL: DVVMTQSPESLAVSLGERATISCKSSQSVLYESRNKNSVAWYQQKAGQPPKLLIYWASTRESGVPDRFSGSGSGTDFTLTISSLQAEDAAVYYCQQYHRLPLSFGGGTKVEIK

The parent's light chain CDRs are KSSQSVLYESRNKNSVA, WASTRES, QQYHRLPLS; each variant's own CDRs replace them letter for letter.
Affinities are written as log10 Kd with Kd in nM; a lower number is a better binder.
Where no diploid with the target was found in that replicate, the entry reads "n.d.": below detection, most likely a poor binder, though not proof of it.

| CDR-L1 | CDR-L2 | CDR-L3 | log10 Kd (nM) by replicate | empty controls |
|---|---|---|---|---|
| IVSQLMLWGMHVKNSIA | EASTRLN | QQYERLPLF | 1.30 1.46 0.17 1.08 0.53 0.68 | 0 of 18 |
| MVSQLMLWGHLAKNSIA | EAQMRLN | QQYDRLPLI | -0.18 1.57 n.d. -0.07 n.d. n.d. | 0 of 18 |
| TISQVLNTLTKVGNNVA | DLAEREQ | QQYFRLPLS | 0.21 1.77 0.83 1.36 0.50 2.03 | 0 of 18 |
| HMSALTLGGMRARNSVA | QMTTREN | QQYDRLPLV | 0.59 0.68 0.81 0.53 0.87 0.74 | 1 of 18 (3.00) |
| TLYGLTNSMSKNKDSVA | EMTTREA | QQYDRLPLA | 2.29 2.87 1.52 1.75 2.48 1.64 | 2 of 18 (2.39) |
| MVNGIMDHLSKNSNNVA | ETTTRNS | QQYDRLPLS | 0.32 0.46 0.29 0.30 -0.03 0.32 | 1 of 18 (3.45) |
| MISQLHNMGTFAINSVA | QASIRNA | QQYDRLPLV | 1.07 0.85 0.76 0.99 0.97 0.81 | 0 of 18 |
| KLTMITGLEKVIGNNVA | EMETREE | QQYNRLPLS | 0.51 0.72 0.89 0.38 0.99 0.98 | 0 of 18 |
| MIYGADRNLGRAKNSIA | DNVTRYN | QQYERLPLS | n.d. n.d. 2.28 2.71 n.d. 2.03 | 1 of 18 (2.61) |
| SLTTVTGQEKVRGNNVA | EMETREN | QQYDRLPLS | 0.71 0.89 0.96 0.85 0.84 1.18 | 1 of 18 (3.31) |
| MLSDVVEGLRRKHNSVA | DNSTRES | QQYDRLPLS | 1.74 1.06 1.47 1.24 1.25 2.03 | 0 of 18 |
| HVSMLTLGGLRNRNSVA | QMTTREN | QQYDRLPLI | 1.16 1.14 0.29 0.25 0.67 0.20 | 0 of 18 |
| MMSSLMGYESRHINNVA | QTSTREA | QQYDRLPLI | 0.55 0.28 0.31 -0.03 0.11 0.44 | 2 of 18 (2.33) |
| HMSMVTLSGMRHTNSVA | QMTTRVN | QQYDRLPLT | 0.90 0.61 0.27 0.41 0.39 1.29 | 1 of 18 (3.01) |
| TITGVMTQMSHSKNNVA | EVSTRLD | QQYFRLPLE | 0.59 0.58 0.36 0.52 0.54 0.67 | 0 of 18 |
| TLSVMQGLEAVKHNSVA | ENSTREK | QQYDRLPLA | 1.54 1.35 1.72 1.23 1.67 2.15 | 0 of 18 |
| TISQMTSWMSNKKDNVA | EVSLREE | QQYDRLPLS | 0.58 1.13 0.95 1.02 1.44 1.27 | 2 of 18 (2.68) |
| TISQLMNMGSFAINSVA | QASIRNS | QQYDRLPLM | 1.14 1.04 1.31 0.78 1.26 0.96 | 0 of 18 |
| KISMLHNQTFEQSNNVA | EMVTREN | QQYHRLPLS | 1.01 1.51 0.91 0.63 1.30 0.66 | 1 of 18 (1.26) |
| HMSMLTLMGLRNRNSVA | QMTTREN | QQYDRLPLA | 0.90 1.26 1.06 1.37 1.02 1.16 | 1 of 18 (2.46) |
| KISMLINTTFEESNNVA | EMVTREK | QQYNRLPLS | 2.16 1.69 n.d. 1.07 1.47 n.d. | 0 of 18 |
| SLGLVTMLEEYARNSVA | NNSTREE | QQYDRLPLS | n.d. n.d. n.d. n.d. 2.25 1.95 | 2 of 18 (1.87) |
| MLSQMTGLGMKAKNSVA | QASMRFN | QQYHRLPLV | 1.25 1.11 1.67 1.66 1.40 1.39 | 1 of 18 (2.29) |
| KLSQTHGMETKNRNSVA | ELVTRMS | QQYNRLPLS | 0.37 0.74 0.64 0.64 0.36 0.80 | 0 of 18 |
| KLQSVTGTEKVHGNNVA | EMATRER | QQYNRLPLA | 0.31 -0.26 -0.07 -0.16 0.26 0.04 | 0 of 18 |
| MISQVMNMLTREGNNVA | DLAEREK | QQYFRLPLS | 2.54 n.d. n.d. n.d. 3.16 n.d. | 0 of 18 |
| MVTQMAMSGMSNKRSVA | NAETREH | QQYHRLPLI | 0.66 0.52 0.01 0.43 0.67 0.67 | 0 of 18 |
| MVTQMAMTGMKNKRSVA | NATTRET | QQYHRLPLI | 1.25 1.09 2.08 1.08 1.35 1.49 | 0 of 18 |
| KVSEFMRGLMQRKDSIA | DNETRNN | QQYDRLPLS | 2.21 1.43 1.49 2.08 1.40 1.52 | 1 of 18 (2.61) |
| MMSQVTGLGQRHRNNVA | QTSMREP | QQYDRLPLI | 0.78 0.54 0.81 0.90 1.34 1.19 | 0 of 18 |
| TISQMSTMFSQSINNVA | EVSTREE | QQYDRLPLA | 1.01 1.71 1.59 1.12 1.14 1.35 | 1 of 18 (2.67) |
| TISQVMNTMTRHGNNVA | DLQEREE | QQYFRLPLS | 1.14 0.85 0.88 1.05 1.16 0.78 | 0 of 18 |
| TIGAQLMYGTRNRSNVA | EVSERLN | QQYDRLPLF | n.d. n.d. n.d. n.d. n.d. n.d. | 0 of 18 |
| KIGMTLNQLQHKKNNVA | DLVTREQ | QQYHRLPLS | 0.30 0.10 0.11 0.06 0.11 0.28 | 1 of 18 (2.68) |
| IVSQLMLWGYHASNSIA | EAQTRLN | QQYDRLPLI | n.d. n.d. n.d. n.d. 2.76 n.d. | 0 of 18 |
| MISQLYNMGTFAINSVA | QASERNE | QQYDRLPLM | 1.12 1.72 1.73 1.30 1.17 1.61 | 0 of 18 |
| QLSMITGHYQMIKNNVA | EMETREN | QQYDRLPLA | 1.37 1.32 1.18 1.29 1.79 1.75 | 3 of 18 (2.49) |
| KIGMTLNQLYEKQNNVA | DLVMREN | QQYHRLPLS | 0.63 0.06 0.11 0.09 0.64 0.45 | 0 of 18 |
| HLGLVTMLEEAVRNNVA | NNSTREE | QQYDRLPLS | n.d. n.d. n.d. n.d. 0.01 n.d. | 1 of 18 (0.67) |
| IVSQLMLWGMHAKNSIA | EAQTRLN | QQYDRLPLM | n.d. n.d. 1.05 n.d. 1.95 n.d. | 1 of 18 (2.09) |
| KLSMITGHMSVQKNNVA | EMETREN | QQYDRLPLS | 0.74 0.85 0.54 0.45 0.65 0.33 | 2 of 18 (1.55) |
| IVSQLMLWGWSASNSIA | EAVTRLN | QQYDRLPLI | 1.55 1.53 n.d. n.d. 2.34 1.14 | 0 of 18 |
| TISQMTSLFSQTINNVA | EVSMREE | QQYDRLPLV | n.d. 0.03 0.61 0.73 0.21 0.69 | 1 of 18 (2.75) |
| MVTQMAMTGMMSKRSVA | NAEMREQ | QQYHRLPLI | 1.32 2.04 n.d. 2.79 1.25 1.68 | 0 of 18 |
| MISQVLNTLTRTGNNVA | DLTERED | QQYFRLPLS | 1.39 1.33 0.92 0.79 1.24 1.81 | 1 of 18 (2.84) |
| QLSSITGHMSMIKNNVA | EMETREE | QQYERLPLS | -0.25 0.11 0.09 0.02 0.14 0.15 | 1 of 18 (1.61) |
| KIGMTLNQLQEKKNNVA | DLVVREN | QQYHRLPLS | 0.59 0.28 0.39 0.09 0.11 0.66 | 0 of 18 |
| KFSQMVNTMSVSKSAVA | EMSTREN | QQYNRLPLS | 2.01 0.94 1.14 1.66 1.15 1.53 | 0 of 18 |
| KLASVTGTEKVRGNNVA | EMETRES | QQYNRLPLS | 0.29 0.08 0.19 0.43 0.31 0.41 | 1 of 18 (2.02) |
| MLSQMWALGMKVSNSVA | QASMRFN | QQYDRLPLV | 1.53 1.20 1.45 0.49 0.34 1.00 | 1 of 18 (1.87) |
| TISQMTSLFSQSINNVA | EVSTREK | QQYDRLPLV | 0.91 1.19 0.64 1.17 0.86 1.36 | 0 of 18 |

The authors averaged sequences with at least three values out of six and counted those with two or fewer as poor binders.
A sequence measured in both rounds can read differently, since the two assays cover different ranges.
Three control strains display no target. For all light chain designs, 4% of the pairings with them gave a signal, with a median of 2.64 and one signal in twenty below 1.59, so weak values seen in few replicates may be background. The control count says in how many pairings with the empty strains this scFv gave a signal, with their mean in brackets.